scFv variants of Ab-14 (heavy chain) against a SARS-CoV-2 spike peptide

Target: peptide PDVDLGDISGINAS, taken from heptad repeat 2 (HR2) of SARS-CoV-2 spike.

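These sequences belong to a second round, designed from the earlier measurements on random variants of the parent. Several design methods are mixed in this list. The assay is AlphaSeq: two haploid yeast populations carry antibody and antigen on their surface. After mating in shaken culture at 30 °C for 16 h, diploids were selected and their barcode pairs sequenced. A regression on co-assayed BCL2-family reference pairs converts the normalised counts of each replicate to an apparent Kd. Each pool was mated in six replicate cultures.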

Parent scFv Ab-14: VH joined to VL by a 15-residue (Gly4Ser)3 linker. Changes lie in the heavy chain CDRs alone.
VH: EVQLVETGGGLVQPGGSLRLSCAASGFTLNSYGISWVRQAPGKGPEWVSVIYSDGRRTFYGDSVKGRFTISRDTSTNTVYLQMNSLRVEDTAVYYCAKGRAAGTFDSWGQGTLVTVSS
VL: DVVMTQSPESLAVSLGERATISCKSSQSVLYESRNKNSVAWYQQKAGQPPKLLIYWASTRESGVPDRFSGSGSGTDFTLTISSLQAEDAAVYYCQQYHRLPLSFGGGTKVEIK

The whole VH of each variant is written out. This list holds designs with more than six substitutions. The Kd shown is the geometric mean over detected replicates; a lower Kd is a better binder. An entry "not detected" has no value in the source: the pair was not observed among the diploids in any replicate. This suggests poor binding but is not conclusive. Values of this round are not directly comparable with the first-round values of the same sequences.

VH,Kd,seen in,control signals
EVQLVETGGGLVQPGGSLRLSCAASGNGLQEYGISWVRQAPGKGPEWVSVIYADGLRSMYANSVKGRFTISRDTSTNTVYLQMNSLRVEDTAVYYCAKGNLDGMVLVWGQGTLVTVSS,not detected,0/6,0/18
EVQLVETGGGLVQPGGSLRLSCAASGFDLNEYGISWVRQAPGKGPEWVSVIYADGQRTVYADSVKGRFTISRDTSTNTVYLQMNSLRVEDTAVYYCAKGNVAGTFDTWGQGTLVTVSS,250 pM,6/6,0/18
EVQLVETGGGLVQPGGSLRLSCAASGFDLDEYGISWVRQAPGKGPEWVSVIYADGRRTAYADSVKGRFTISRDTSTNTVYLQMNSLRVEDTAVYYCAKGEVAGTFDMWGQGTLVTVSS,370 pM,6/6,0/18
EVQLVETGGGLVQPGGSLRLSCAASGFDLNEYGISWVRQAPGKGPEWVSVIYADGMRQAYADSVKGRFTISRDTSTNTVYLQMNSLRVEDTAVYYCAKGNVAGTFDLWGQGTLVTVSS,230 pM,6/6,0/18
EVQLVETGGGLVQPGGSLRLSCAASGGDLNEYGISWVRQAPGKGPEWVSVIYADGVRKNYIDSVKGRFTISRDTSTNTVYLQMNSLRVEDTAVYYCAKGQTGIVLNIWGQGTLVTVSS,not detected,0/6,0/18
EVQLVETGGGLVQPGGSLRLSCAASGFKLDEYGISWVRQAPGKGPEWVSVIYADGCRTAYVDSVKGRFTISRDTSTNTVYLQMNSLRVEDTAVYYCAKGGTTFSKFVWGQGTLVTVSS,not detected,0/6,0/18
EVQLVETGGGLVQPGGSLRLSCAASGFDLNEYGISWVRQAPGKGPEWVSVIYADGMRTAYTDSVKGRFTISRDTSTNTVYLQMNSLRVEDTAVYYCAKGNIAGTFDVWGQGTLVTVSS,300 pM,6/6,0/18
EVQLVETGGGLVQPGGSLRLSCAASGFDLNEYGISWVRQAPGKGPEWVSVIYADGKRTAYSDSVKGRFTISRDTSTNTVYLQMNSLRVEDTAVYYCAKGNVAGTFDLWGQGTLVTVSS,280 pM,6/6,0/18
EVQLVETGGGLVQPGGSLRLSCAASGFKLDEQGISWVRQAPGKGPEWVSVIYADGRRVGYTDSVKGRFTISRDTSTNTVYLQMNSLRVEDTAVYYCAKGTNGLNFTLWGQGTLVTVSS,not detected,0/6,1/18
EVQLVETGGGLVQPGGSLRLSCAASGFDLNEYGISWVRQAPGKGPEWVSVIYADGRRTFYTDSVKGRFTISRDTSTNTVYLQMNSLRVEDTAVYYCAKGQLAGTFDTWGQGTLVTVSS,400 pM,6/6,0/18
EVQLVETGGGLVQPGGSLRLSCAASGFDLDEYGISWVRQAPGKGPEWVSVIYADGRRTFYTDSVKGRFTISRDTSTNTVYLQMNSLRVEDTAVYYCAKGENAGTFDVWGQGTLVTVSS,280 pM,6/6,0/18
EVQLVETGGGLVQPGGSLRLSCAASGFDLNEYGISWVRQAPGKGPEWVSVIYADGVRTAYADSVKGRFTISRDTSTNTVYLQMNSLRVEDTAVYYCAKGEQAGTFDVWGQGTLVTVSS,1.0 nM,6/6,1/18
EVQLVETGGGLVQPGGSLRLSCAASGFGIEEYGISWVRQAPGKGPEWVSVIYADGQRNAYADEVKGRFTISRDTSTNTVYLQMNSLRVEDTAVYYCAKGENAGTFDIWGQGTLVTVSS,1.0 nM,6/6,0/18
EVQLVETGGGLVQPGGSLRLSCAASGMNLEEYGISWVRQAPGKGPEWVSVIYADGLRSAYVDAVKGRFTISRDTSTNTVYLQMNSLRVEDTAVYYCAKGGVGDVDFVWGQGTLVTVSS,140 nM,1/6,1/18
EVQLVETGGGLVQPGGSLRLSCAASGFDLGEYGISWVRQAPGKGPEWVSVIYADGVRKSYAQKVKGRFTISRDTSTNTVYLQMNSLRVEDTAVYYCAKGKNGAISSVWGQGTLVTVSS,77 nM,1/6,1/18
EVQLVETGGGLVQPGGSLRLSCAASGRTINNYGISWVRQAPGKGPEWVSVIYSDGRRTFYNDSVKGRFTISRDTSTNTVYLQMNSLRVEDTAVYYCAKGRAAKTSEWWGQGTLVTVSS,not detected,0/6,0/18
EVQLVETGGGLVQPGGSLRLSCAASGFDLDEYGISWVRQAPGKGPEWVSVIYADGRRTAYADSVKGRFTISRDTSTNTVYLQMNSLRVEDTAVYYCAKGNVAGTFDMWGQGTLVTVSS,300 pM,6/6,1/18
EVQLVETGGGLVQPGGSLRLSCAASGVNLDEYGISWVRQAPGKGPEWVSVIYADGVRSHYADSVKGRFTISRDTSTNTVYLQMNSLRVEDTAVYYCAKGMHGDFGVVWGQGTLVTVSS,not detected,0/6,0/18
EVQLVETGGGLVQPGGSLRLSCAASGFDLNEYGISWVRQAPGKGPEWVSVIYADGMRTFYTDSVKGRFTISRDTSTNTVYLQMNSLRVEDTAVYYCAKGEFAGTFDDWGQGTLVTVSS,5.4 nM,6/6,2/18
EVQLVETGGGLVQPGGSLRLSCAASGFDLEEMGVSWVRQAPGKGPEWVSVIYADGIRTAVSEDVKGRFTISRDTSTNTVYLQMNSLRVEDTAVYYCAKGNVAGTGDFWGQGTLVTVSS,not detected,0/6,0/18
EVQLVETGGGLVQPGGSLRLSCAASGFDLDEYGVSWVRQAPGKGPEWVSVIYADGERTFYQDKVKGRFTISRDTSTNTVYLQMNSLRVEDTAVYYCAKGTHGGTRDIWGQGTLVTVSS,68 nM,1/6,0/18
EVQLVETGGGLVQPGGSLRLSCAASGFTLDEYGISWVRQAPGKGPEWVSVIYADGRRTFYADSVKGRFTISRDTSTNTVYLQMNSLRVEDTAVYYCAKGEHAGTFDIWGQGTLVTVSS,3.4 nM,6/6,1/18

Excerpt, the first 3 entries:

VH	Kd	seen in	control signals
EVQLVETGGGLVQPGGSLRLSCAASGNGLQEYGISWVRQAPGKGPEWVSVIYADGLRSMYANSVKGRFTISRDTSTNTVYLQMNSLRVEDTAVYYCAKGNLDGMVLVWGQGTLVTVSS	not detected	0/6	0/18
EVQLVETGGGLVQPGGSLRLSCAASGFDLNEYGISWVRQAPGKGPEWVSVIYADGQRTVYADSVKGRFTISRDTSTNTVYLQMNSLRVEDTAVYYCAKGNVAGTFDTWGQGTLVTVSS	250 pM	6/6	0/18
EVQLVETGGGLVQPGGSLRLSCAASGFDLDEYGISWVRQAPGKGPEWVSVIYADGRRTAYADSVKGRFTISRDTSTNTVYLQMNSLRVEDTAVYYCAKGEVAGTFDMWGQGTLVTVSS	370 pM	6/6	0/18

The authors' rule: three or more of the six replicates give a measured affinity, fewer mean a poor binder. As a blank, each scFv also met three strains without target: over all heavy chain designs, 1% of these pairings were detected, typically at 120 nM and seldom below 7.0 nM. For each scFv, signals with the empty controls are counted beside the result.

Data: MIT Lincoln Laboratory AlphaSeq set, Li et al. 2023, doi:10.1038/s41467-023-39022-2, as distributed in FLAb.